Patent US9505780B2, “Thienopyranones as kinase and epigenetic inhibitors” (SignalRx Pharmaceuticals, Inc., priority 2014, dated 2016)

Chains of the proteins cited; added tags and fusions are not shown. Lines headed by an entry give the natural chain unless they say otherwise; changes in a name come on top.
UniProt P42338: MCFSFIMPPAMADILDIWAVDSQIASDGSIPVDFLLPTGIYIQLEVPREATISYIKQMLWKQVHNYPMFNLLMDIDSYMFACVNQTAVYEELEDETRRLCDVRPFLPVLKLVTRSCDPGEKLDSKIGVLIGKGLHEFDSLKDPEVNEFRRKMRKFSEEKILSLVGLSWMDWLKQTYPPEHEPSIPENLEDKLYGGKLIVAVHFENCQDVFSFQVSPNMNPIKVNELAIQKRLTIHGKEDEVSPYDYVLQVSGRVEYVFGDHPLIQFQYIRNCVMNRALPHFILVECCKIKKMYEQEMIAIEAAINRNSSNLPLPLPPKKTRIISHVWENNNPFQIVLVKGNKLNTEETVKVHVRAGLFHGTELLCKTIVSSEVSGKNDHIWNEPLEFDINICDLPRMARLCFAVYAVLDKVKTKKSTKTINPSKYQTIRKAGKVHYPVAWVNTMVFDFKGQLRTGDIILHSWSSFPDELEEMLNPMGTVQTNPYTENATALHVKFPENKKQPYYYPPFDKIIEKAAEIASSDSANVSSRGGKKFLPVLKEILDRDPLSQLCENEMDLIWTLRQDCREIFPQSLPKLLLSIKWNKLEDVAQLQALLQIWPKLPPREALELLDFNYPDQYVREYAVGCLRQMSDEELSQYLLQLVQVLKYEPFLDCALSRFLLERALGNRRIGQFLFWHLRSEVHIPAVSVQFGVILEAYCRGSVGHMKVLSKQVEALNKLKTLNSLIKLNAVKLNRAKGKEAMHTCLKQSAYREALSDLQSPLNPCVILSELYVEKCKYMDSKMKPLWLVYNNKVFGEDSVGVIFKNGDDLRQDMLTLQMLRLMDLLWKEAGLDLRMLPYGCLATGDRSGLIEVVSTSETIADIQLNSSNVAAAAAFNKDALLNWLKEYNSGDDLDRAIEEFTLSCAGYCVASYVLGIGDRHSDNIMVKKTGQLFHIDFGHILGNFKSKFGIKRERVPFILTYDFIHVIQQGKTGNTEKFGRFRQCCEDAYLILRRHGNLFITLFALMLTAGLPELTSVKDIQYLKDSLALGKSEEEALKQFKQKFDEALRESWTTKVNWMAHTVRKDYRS

Target: PI3Kβ (Homo sapiens (Human), UniProt P42338)
Assay: PI3K beta isoform inhibition
Type: biochemical
Text: Inhibitory activity can be determined routinely using known methods and also front commercial vendors offering this service for kinases and bromodomain proteins. […] In vivo, PI3K inhibition can be determined from target tissue biopsies by standard tissue processing to disrupt cells and then performing Western Blot analysis to determine the presence or absence of pAKT (substrate of PI3K) relative to a control sample. The activity of a compound of the invention as an inhibitor of a bromodomain-containing protein, such as a BET protein, such as BRD2, BRD3, BRD4, and/or BRDT, or an isoform or mutant thereof may be determined in vitro, in vivo, or in a cell line. In vitro assays include assays that determine inhibition of bromodomain-containing proteins. Alternatively, inhibitor binding may be determined by running a competition experiment where a provided compound is incubated with a bromodomain-containing protein, such as a BET protein bound to known ligands, labeled or unlabeled. For example, bromodomain inhibition can be determined in vitro using Alpha Screen Technology (http://www.reactionbiology.com/webapps/site/NewsPDFs/Bromodomain%20Assay%20Platform%20for%20Drug%/20Screening%20and%20Discovery.pdf). […]

O=c1cc(N2CCOCC2)oc2c(-c3ccccc3)cccc12 [LY294002, 2-(4-morpholinyl)-8-phenyl-4H-1-benzopyran-4-one, reference compound] showed an IC50 of 736 nM.
